Here are results for 2 molecules from article PMC12147714 (FEMS Microbiology Letters, 2025).

Chains of the proteins cited; added tags and fusions are not shown. Residues count along the entry.
UniProt C7C422, 29-270 limits assumed: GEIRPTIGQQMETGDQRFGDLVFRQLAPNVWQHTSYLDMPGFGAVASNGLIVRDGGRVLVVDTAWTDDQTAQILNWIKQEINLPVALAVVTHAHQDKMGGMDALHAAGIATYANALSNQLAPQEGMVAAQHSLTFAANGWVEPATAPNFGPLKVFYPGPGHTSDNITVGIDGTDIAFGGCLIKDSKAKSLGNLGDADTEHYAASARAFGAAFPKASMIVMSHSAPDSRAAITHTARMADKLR

For experiment [1], the system named is PAO1 TnoprD producing NDM-1. Kind of experiment: MIC and checkerboard by broth microdilution, recombinant strain. In kind it is cell-based, Pseudomonas aeruginosa. To be noted: NDM-1 TnoprD; antibiotic alone. In general terms: Dilution methods test growth across graded concentrations, often in twofold steps.
The test system of experiment [2] is PAO1 TnoprD producing VIM-1. The experiment is described as above. The class given is cell-based, Pseudomonas aeruginosa. To be noted: VIM-1 TnoprD; antibiotic alone.
A further experiment deals with PAO1 producing KPC-2. As to conditions: antibiotic alone.
A further experiment deals with NDM-1 (Klebsiella pneumoniae, UniProt C7C422). Kind of experiment: IC50, inhibition of cephalothin hydrolysis by crude extract.

Converted amounts (≈) assume the structure as drawn.

In the case of `C[C@@H](O)[C@H]1C(=O)N2C(C(=O)O)=C(SCCN=CN)C[C@H]12` [IPM, imipenem], the values for the MIC (in experiment [1]; in experiment [2]; in the experiment on PAO1 producing KPC-2) were 128 µg/mL, 128 µg/mL and 128 µg/mL (≈ 428 µM), respectively.
Regarding `O=C(O)c1c(F)ccc2c1OB(O)[C@@H]1C[C@H]21` [XER, xeruborbactam], the IC50 (as a rule, the concentration needed to halve the response being measured) on NDM-1 was 4.3 µM.
